Measured values: US7462599B2, “Use of effectors of glutaminyl and glutamate cyclases” (Probiodrug AG, priority 2003, dated 2008)

The chains behind the UniProt entries cited, without tags or fusion partners. Residues count along the entry.
UniProt Q16769, 29-361: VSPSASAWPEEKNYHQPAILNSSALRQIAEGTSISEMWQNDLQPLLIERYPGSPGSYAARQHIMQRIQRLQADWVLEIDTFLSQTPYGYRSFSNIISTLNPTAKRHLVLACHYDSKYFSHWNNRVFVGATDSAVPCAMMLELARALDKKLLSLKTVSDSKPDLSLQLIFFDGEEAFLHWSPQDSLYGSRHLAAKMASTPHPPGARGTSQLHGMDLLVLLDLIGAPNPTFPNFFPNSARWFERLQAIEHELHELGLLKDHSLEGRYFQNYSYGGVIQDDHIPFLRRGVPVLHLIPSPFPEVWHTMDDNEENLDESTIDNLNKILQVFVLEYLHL

Target: QC (Homo sapiens, UniProt Q16769)
Experiment: Continuous spectrophotometric assay of substrate conversion, human QC;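 note: initial rates read at 30 °C in a microplate reader, with activity quantified against an ammonia calibration curve under the same assay conditions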
Assay type: biochemical
Parameters: The cDNA of the mature QC starting with codon 38 was fused in frame with the plasmid encoded 6× histidine tag; 6x histidine tag; made in house; host or cells: Pichia pastoris X33 (pPICZαB); also E. coli M15 (pQE-31)
Conditions: for Ki*: for substrate inhibition; for Ki* / Ki: n.i. = no inhibition
[1] = 0.05 M Tris-HCl, pH 8.0, 0.5 M KCl

With `N=C(N)NCCC[C@H](NC(=O)[C@@H](N)CCC(N)=O)C(=O)N[C@@H](Cc1ccc(O)cc1)C(=O)N[C@@H](Cc1ccccc1)C(N)=O` [H-Gln-Arg-Tyr-Phe-NH2] the “Ki*” value (Table 6) was “n.i”, the Km (Table 6, n.r. = not reactive) was 55 ± 2 µM and the kcat (Table 6, n.r. = not reactive) was 29.6 ± 0.3 s⁻¹.
With `C[C@H](NC(=O)[C@H](Cc1ccc(O)cc1)NC(=O)[C@@H](N)CCC(N)=O)C(=O)O` [H-Gln-Tyr-Ala-OH] the Km was 101 ± 4 µM, the “Ki*” value (Table 6) was “n.i” and the kcat (Table 6, n.r. = not reactive) was 125 ± 1 s⁻¹.
In the case of `C[C@H](NC(=O)[C@H](Cc1ccc(O)cc1)NC(=O)[C@H](CCC(=O)O)NC(=O)[C@@H](N)CCC(N)=O)C(N)=O` [H-Gln-Glu-Tyr-Ala-NH2], the “Ki*” value (Table 6) is reported as “n.i”, the Km (Table 6, n.r. = not reactive) is reported as 69 ± 2 µM and the kcat (Table 6, n.r. = not reactive) is reported as 42.1 ± 0.4 s⁻¹.
`CC(C)C[C@H](NC(=O)[C@H](CC(=O)O)NC(=O)[C@H](CCC(=O)O)NC(=O)[C@@H](N)CCC(N)=O)C(N)=O` [H-Gln-Glu-Asp-Leu-NH2] gave a Km (0.05 M Tris-HCl, pH 8.0) of 60 ± 2 µM, a kcat (0.05 M Tris-HCl, pH 8.0) of 46.6 ± 0.5 s⁻¹ and a Km [1] of 61 ± 2 µM. For the same molecule, the kcat [1] was 45.6 ± 0.5 s⁻¹, the Ki [1] was “n.i” and the Ki (0.05 M Tris-HCl, pH 8.0) was “n.i”. The “Ki*” value (Table 6) was “n.i”, the Km (Table 6, n.r. = not reactive) was 55 ± 2 µM and the kcat (Table 6, n.r. = not reactive) was 45.8 ± 0.5 s⁻¹.
In the case of `C[C@H](NC(=O)[C@H](C)NC(=O)[C@H](CCC(=O)O)NC(=O)[C@@H](N)CCC(N)=O)C(N)=O` [H-Gln-Glu-Ala-Ala-NH2], the “Ki*” value (Table 6) is reported as “n.i”, the Km (Table 6, n.r. = not reactive) is reported as 77 ± 4 µM and the kcat (Table 6, n.r. = not reactive) is reported as 46 ± 1 s⁻¹.
With `C[C@H](NC(=O)[C@H](CCC(=O)O)NC(=O)[C@@H](N)CCC(N)=O)C(=O)N[C@@H](Cc1ccccc1)C(N)=O` [H-Gln-Glu-Ala-Phe-NH2] the “Ki*” value (Table 6) was “n.i”, the Km (Table 6, n.r. = not reactive) was 39 ± 3 µM and the kcat (Table 6, n.r. = not reactive) was 39 ± 1 s⁻¹.
`NC(=O)CC[C@H](N)C(=O)N[C@@H](CO)C(=O)N[C@@H](Cc1ccc(O)cc1)C(=O)N[C@@H](Cc1ccccc1)C(N)=O` [H-Gln-Ser-Tyr-Phe-NH2] was tested, and the “Ki*” value (Table 6) was “n.i”, the Km (Table 6, n.r. = not reactive) was 55 ± 3 µM and the kcat (Table 6, n.r. = not reactive) was 52.8 ± 0.8 s⁻¹.
`NC(=O)CC[C@H](N)C(=O)N[C@@H](Cc1c[nH]cn1)C(=O)N[C@@H](Cc1ccc(O)cc1)C(=O)N[C@@H](Cc1ccccc1)C(N)=O` [H-Gln-His-Tyr-Phe-NH2] was tested, and the “Ki*” value (Table 6) was “n.i”, the Km (Table 6, n.r. = not reactive) was 68 ± 3 µM and the kcat (Table 6, n.r. = not reactive) was 55.4 ± 0.7 s⁻¹.
Molecule `CC[C@H](C)[C@H](NC(=O)CNC(=O)[C@H](CCCNC(=N)N)NC(=O)[C@@H](N)CCC(N)=O)C(N)=O` [H-Gln-Arg-Gly-Ile-NH2] has a Km (0.05 M Tris-HCl, pH 8.0) of 166 ± 13 µM, a kcat (0.05 M Tris-HCl, pH 8.0) of 31 ± 1 s⁻¹ and a Km [1] of 91 ± 5 µM. For the same molecule, the kcat [1] was 29.8 ± 0.5 s⁻¹, the Ki [1] was “n.i” and the Ki (0.05 M Tris-HCl, pH 8.0) was “n.i”. For the same molecule, the “Ki*” value (Table 6) was “n.i”, the Km (Table 6, n.r. = not reactive) was 143 ± 4 µM and the kcat (Table 6, n.r. = not reactive) was 33.5 ± 0.4 s⁻¹.
In the case of `CC(C)C[C@H](NC(=O)[C@H](CCCNC(=N)N)NC(=O)[C@H](CCCCN)NC(=O)[C@@H](N)CCC(N)=O)C(N)=O` [H-Gln-Lys-Arg-Leu-NH2], the Km (0.05 M Tris-HCl, pH 8.0) is reported as 51 ± 3 µM, the kcat (0.05 M Tris-HCl, pH 8.0) is reported as 29.4 ± 0.5 s⁻¹ and the Km [1] is reported as 34 ± 1 µM. The kcat [1] was 31.6 ± 0.3 s⁻¹, the Ki [1] was “n.i” and the Ki (0.05 M Tris-HCl, pH 8.0) was “n.i”. For the same molecule, the “Ki*” value (Table 6) was “n.i”, the Km (Table 6, n.r. = not reactive) was 54 ± 3 µM and the kcat (Table 6, n.r. = not reactive) was 33.4 ± 0.51 s⁻¹.
`NC(=O)CC[C@H](NC(=O)[C@@H](N)CCC(N)=O)C(=O)N[C@@H](Cc1ccc(O)cc1)C(=O)N[C@@H](Cc1ccccc1)C(N)=O` [H-Gln-Gln-Tyr-Phe-NH2] was tested, and the “Ki*” value (Table 6) was “n.i”, the Km (Table 6, n.r. = not reactive) was 41 ± 2 µM and the kcat (Table 6, n.r. = not reactive) was 41.4 ± 0.4 s⁻¹.
For `NC(=O)CC[C@H](N)C(=O)N[C@@H](CCC(=O)O)C(=O)N[C@@H](Cc1ccc(O)cc1)C(=O)N[C@@H](Cc1ccccc1)C(N)=O` [H-Gln-Glu-Tyr-Phe-NH2], the “Ki*” value (Table 6) was “n.i”, the Km (Table 6, n.r. = not reactive) was 47 ± 4 µM and the kcat (Table 6, n.r. = not reactive) was 46 ± 1 s⁻¹.
For `NC(=O)CC[C@H](N)C(=O)N[C@@H](CCC(=O)O)C(=O)N[C@@H](Cc1ccc(O)cc1)C(N)=O` [H-Gln-Glu-Tyr-NH2], the Km was 79 ± 2 µM, the “Ki*” value (Table 6) was “n.i” and the kcat (Table 6, n.r. = not reactive) was 45.1 ± 0.4 s⁻¹.
For `C[C@H](NC(=O)[C@H](Cc1ccccc1)NC(=O)[C@@H](N)CCC(N)=O)C(N)=O` [H-Gln-Phe-Ala-NH2], the Km was 69 ± 3 µM, the “Ki*” value (Table 6) was “n.i” and the kcat (Table 6, n.r. = not reactive) was 109 ± 1 s⁻¹.
For `CC[C@H](C)[C@H](NC(=O)CNC(=O)[C@H](CC(N)=O)NC(=O)[C@@H](N)CCC(N)=O)C(N)=O` [H-Gln-Asn-Gly-Ile-NH2], the “Ki*” value (Table 6) was “n.i”, the Km (Table 6, n.r. = not reactive) was 172 ± 5 µM and the kcat (Table 6, n.r. = not reactive) was 56.6 ± 0.5 s⁻¹.
For `C[C@H](NC(=O)[C@H](Cc1c[nH]c2ccccc12)NC(=O)[C@@H](N)CCC(N)=O)C(N)=O` [H-Gln-Trp-Ala-NH2], the kcat (0.05 M Tris-HCl, pH 8.0) was 50.8 ± 0.6 s⁻¹, the kcat [1] was 50.0 ± 0.4 s⁻¹ and the Ki [1] was “n.i”. For the same molecule, the Ki (0.05 M Tris-HCl, pH 8.0) was “n.i”, the “Ki*” value (Table 6) was “n.i” and the kcat (Table 6, n.r. = not reactive) was 47.0 ± 0.7 s⁻¹.

Where two headings read alike, the source gives them in different places.
